This is an account of results in ChEMBL document CHEMBL5365425, “Discovery of novel methionine adenosyltransferase 2A (MAT2A) allosteric inhibitors by structure-based virtual screening” (Bioorg Med Chem Lett, 2023).

Protein sequences, listed by entry. Tags and fused reporters are not part of them.
UniProt P31153, whole entry, looked up: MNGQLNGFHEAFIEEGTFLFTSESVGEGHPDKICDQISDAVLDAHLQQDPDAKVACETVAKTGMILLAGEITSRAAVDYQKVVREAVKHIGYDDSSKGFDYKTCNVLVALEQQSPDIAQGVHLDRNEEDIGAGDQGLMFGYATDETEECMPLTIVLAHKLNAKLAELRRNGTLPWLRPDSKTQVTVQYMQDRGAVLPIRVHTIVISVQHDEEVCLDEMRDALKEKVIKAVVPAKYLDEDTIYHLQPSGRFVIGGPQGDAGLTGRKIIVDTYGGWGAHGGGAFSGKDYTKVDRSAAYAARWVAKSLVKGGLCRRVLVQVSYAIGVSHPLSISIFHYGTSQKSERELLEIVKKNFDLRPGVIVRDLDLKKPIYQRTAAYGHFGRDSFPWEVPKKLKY

The test addresses S-adenosylmethionine synthase isoform type-2 (Homo sapiens, UniProt P31153).

Take `CCn1ncc2c(C(=O)Nc3ccc4nn(C)c(C)c4c3)cc(C3CC3)nc21`: the deltaT worked out at 12.6 °C.

Turning to `CCn1ncc2c(C(=O)Nc3ccc4nn(C)cc4c3)cc(C3CC3)nc21`, the deltaT is 14 °C.

`CCn1ncc2c(C(=O)Nc3ccc4c(c3)ncn4C)cc(C3CC3)nc21` returned a deltaT of 6.1 °C.

In turn, `CCn1ncc2c(C(=O)Nc3ccc4ncn(C)c4c3)cc(C3CC3)nc21` returned a deltaT of 7.6 °C.

`COc1ccc2oc3cc(C)[n+]([O-])c(-c4ccc(C)cc4)c3c2c1` displayed a deltaT of 18 °C.

The molecule `CCn1ncc2c(C(=O)Nc3ccc(OC)cc3)cc(C3CC3)nc21` displayed a deltaT of 10 °C.

As for `COc1ccc(-c2c3c(cc(C)[n+]2[O-])oc2ccc(OC)cc23)cc1`, the deltaT turned out to be 12.3 °C.
